Reference: ChEMBL document CHEMBL1128234, “Isothiocyanate-substituted benzyl ether opioid receptor ligands derived from 6 beta-naltrexol” (J Med Chem, 1995)

Target: Opioid receptors; mu/kappa/delta
Experiment: Inhibitory concentration was determined against Opioid receptors using [3H]- bremazocine radioligand
Assay type: protein assay, Cavia porcellus
How it was run: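 Guinea pig brain (minus cerebellum) homogenate in 0.05 M Tris pH 7.4, diluted 1:60 (0.8-1.5 mg protein/ml). Ligand tested in duplicate at nine concentrations; 60 min at 25 °C. Nonspecific binding defined with naloxone. Filtration, ice-cold buffer rinse, scintillation counting.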

`Oc1ccc2c3c1O[C@H]1[C@@H](O)CC[C@@]4(O)[C@@H](C2)N(CC2CC2)CC[C@]314` was tested, and the IC50 was 8.3 nM.
